The text below walks through data of PubChem BioAssay (NCI).

This is a selection; strong and weak results do not stand in their true shares. Where a structure was tested more than once in an assay, its records may differ in their call. Activity calls are given as the source filed them. No stated cut-off is given here; in the data, active means growth inhibition above about 70%; inactive means the rest.

A short description of this assay: NCI Yeast Anticancer Drug Screen. Data for the sgs1 strain (AID 173).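 Further: 0% = growth of vehicle-only control cultures.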 Conditions: S. cerevisiae sgs1 mutant, hits give high values. The method, then: Growth inhibition of yeast strains with defined genetic alterations is measured as a screen for potential anti-cancer activity. Selected strains with alterations in DNA damage repair or cell cycle control were exposed to compounds and growth inhibition was measured relative to vehicle treated controls. The strain used in this assay is sgs1

For `COc1ccc(C[N+](C)(CCCl)CCCl)c([N+](=O)[O-])c1`, the growth inhibition reads like this: (at 1.2 µM) inactive: 8%; (at 3.7 µM) inactive: 9%; (at 11.0 µM) inactive: 18%; (at 33.0 µM) inactive: 27%; (at 100.0 µM) inactive: 31%.
Taken in the same sequence, the figures for `Cc1cccc(C[N+](C)(CCCl)CCCl)c1[N+](=O)[O-]` were inactive: 19%, inactive: 32%, inactive: 55%, active: 81% and active: 95%.
Taken in the same sequence, the figures for `ClCCN1CCCCC1CCl` (stereo not given) were inactive: -2%, inactive: 1%, inactive: 13%, inactive: 43% and active: 80%.
Taken in the same sequence, the figures for `Cn1cnc([N+](=O)[O-])c1C[N+](C)(CCCl)CCCl` were inactive: 17%, inactive: 29%, inactive: 55%, active: 75% and active: 87%.
As for `COc1ccc([N+](=O)[O-])c(C[N+](C)(CCCl)CCCl)c1`, the growth inhibition runs as follows: (at 1.2 µM) inactive: 6%; (at 3.7 µM) inactive: 14%; (at 11.0 µM) inactive: 15%; (at 33.0 µM) inactive: 35%; (at 100.0 µM) active: 72%.
Taken in the same sequence, the figures for `Cc1ccc([N+](=O)[O-])c(C[N+](C)(CCCl)CCCl)c1` were inactive: 16%, inactive: 31%, inactive: 58%, active: 85% and active: 96%.
